Laboratory results taken from ChEMBL document CHEMBL2375349, “Discovery of subtype selective muscarinic receptor antagonists as alternatives to atropine using in silico pharmacophore modeling and virtual screening methods” (2013).

Test: Displacement of [3H] N-methylscopolamine from muscarinic acetylcholine receptor in guinea pig brain homogenate after 30 mins by scintillation counting analysis

O=[N+]([O-])c1cc([N+](=O)[O-])c(Nc2ccc(Br)cc2Br)c([N+](=O)[O-])c1
Ki: 5.7 µM
